Assays:
Format in all cases: biochemical
GSK-3β (AA 1-420) = target: T1, GSK-3β (AA 1-420) (Homo sapiens, UniProt P49841); test: Ki determination for the inhibition of GSK-3 (coupled enzyme system); conditions: Ki values for GSK-3, 20 μM ATP, 20 nM GSK-3β, 30° C.
T1 construct: GSK-3β (AA 1-420)
Description: Compounds were screened for their ability to inhibit GSK-3β (AA 1-420) activity using a standard coupled enzyme system (Fox et al. (1998) Protein Sci. 7, 2249). Reactions were carried out in a solution containing 100 mM HEPES (pH 7.5), 10 mM MgCl2, 25 mM NaCl, 300 μM NADH, 1 mM DTT and 1.5% DMSO. Final substrate concentrations in the assay were 20 μM ATP (Sigma Chemicals, St Louis, Mo.) and 300 μM peptide (HSSPHQS (PO3H2) EDEEE, American Peptide, Sunnyvale, Calif.). Reactions were carried out at 30° C. and 20 nM GSK-3β. Final concentrations of the components of the coupled enzyme system were 2.5 mM phosphoenolpyruvate, 300 μM NADH, 30 μg/ml pyruvate kinase and 10 μg/ml lactate dehydrogenase.
An assay stock buffer solution was prepared containing all of the reagents listed above with the exception of ATP and the test compound of interest. The assay stock buffer solution (175 μl) was incubated in a 96 well plate with 5 μl of the test compound of interest at final concentrations spanning 0.002 μM to 30 μM at 30° C. for 10 min. […] The reaction was initiated by the addition of 20 μl of ATP (final concentration 20 μM). Rates of reaction were obtained using a Molecular Devices Spectramax plate reader (Sunnyvale, Calif.) over 10 min at 30° C. The Ki values were determined from the rate data as a function of inhibitor concentration.

By UniProt entry, the sequences of proteins in these tests, tags left out. Where a name states a change or a piece, a line headed by the entry shows the natural chain unless it says otherwise.
UniProt P49841: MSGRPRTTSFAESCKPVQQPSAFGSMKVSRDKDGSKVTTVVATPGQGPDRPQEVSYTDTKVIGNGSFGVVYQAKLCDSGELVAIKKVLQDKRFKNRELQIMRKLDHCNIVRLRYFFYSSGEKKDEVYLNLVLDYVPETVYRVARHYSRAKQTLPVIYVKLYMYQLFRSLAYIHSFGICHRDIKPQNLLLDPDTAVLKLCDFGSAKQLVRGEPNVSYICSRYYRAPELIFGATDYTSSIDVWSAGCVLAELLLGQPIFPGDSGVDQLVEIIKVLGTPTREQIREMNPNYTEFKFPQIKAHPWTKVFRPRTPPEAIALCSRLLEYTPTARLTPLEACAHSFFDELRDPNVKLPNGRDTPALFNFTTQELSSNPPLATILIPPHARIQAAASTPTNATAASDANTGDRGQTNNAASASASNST
UniProt P12931, whole entry: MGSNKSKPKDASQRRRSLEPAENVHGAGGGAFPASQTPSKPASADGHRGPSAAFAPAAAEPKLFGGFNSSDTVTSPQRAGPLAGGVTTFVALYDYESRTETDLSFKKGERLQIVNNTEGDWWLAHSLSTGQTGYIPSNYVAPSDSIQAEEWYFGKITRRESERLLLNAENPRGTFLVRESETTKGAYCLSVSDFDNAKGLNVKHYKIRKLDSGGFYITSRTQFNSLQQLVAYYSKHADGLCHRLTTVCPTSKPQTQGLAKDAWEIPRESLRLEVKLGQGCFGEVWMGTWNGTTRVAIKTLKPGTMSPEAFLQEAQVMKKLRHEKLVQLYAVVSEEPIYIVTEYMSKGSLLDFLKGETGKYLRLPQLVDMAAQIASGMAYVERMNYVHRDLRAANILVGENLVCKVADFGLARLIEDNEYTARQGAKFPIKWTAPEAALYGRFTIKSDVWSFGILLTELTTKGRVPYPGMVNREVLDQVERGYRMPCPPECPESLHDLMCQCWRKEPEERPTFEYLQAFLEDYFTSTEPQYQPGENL

Aurora-2 = target: T2, Aurora-2 (Homo sapiens, UniProt O14965); test: Ki determination for the inhibition of Aurora-2 (coupled enzyme assay); conditions: 70 nM Aurora-2, 30° C.; read-out: Ki values for Aurora-2
T2 sequence (O14965 1-403): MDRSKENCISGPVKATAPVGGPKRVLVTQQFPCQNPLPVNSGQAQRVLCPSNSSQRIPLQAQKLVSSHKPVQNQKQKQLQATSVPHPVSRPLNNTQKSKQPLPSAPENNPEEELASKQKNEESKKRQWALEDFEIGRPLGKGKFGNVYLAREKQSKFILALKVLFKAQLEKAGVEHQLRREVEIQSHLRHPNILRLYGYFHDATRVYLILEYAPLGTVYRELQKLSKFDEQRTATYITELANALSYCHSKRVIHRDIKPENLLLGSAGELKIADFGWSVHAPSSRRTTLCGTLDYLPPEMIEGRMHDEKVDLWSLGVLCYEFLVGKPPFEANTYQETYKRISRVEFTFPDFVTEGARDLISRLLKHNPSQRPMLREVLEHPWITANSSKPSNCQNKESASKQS
Description: Compounds were screened in the following manner for their ability to inhibit Aurora-2 using a standard coupled enzyme assay (Fox et al (1998) Protein Sci 7, 2249).
To an assay stock buffer solution containing 0.1M HEPES 7.5, 10 mM MgCl2, 1 mM DTT, 25 mM NaCl, 2.5 mM phosphoenolpyruvate, […], 30 mg/ml pyruvate kinase, 10 mg/ml lactate dehydrogenase, […], and 800 μM peptide (LRRASLG, American Peptide, Sunnyvale, Calif.) was added a DMSO solution of a compound of the present invention to a final concentration of 30 μM. The resulting mixture was incubated at 30° C. for 10 min. The reaction was initiated by the addition of 10 μL of Aurora-2 stock solution to give a final concentration of 70 nM in the assay. The rates of reaction were obtained by monitoring absorbance at 340 nm over a 5 minute read time at 30° C. using a BioRad Ultramark plate reader (Hercules, Calif.). The Ki values were determined from the rate data as a function of inhibitor concentration.

human Src kinase = target: T3, human Src kinase (Homo sapiens, UniProt P12931); test: SRC inhibition assay (radioactivity-based or spectrophotometric assay)
T3 construct: full length recombinant human Src kinase (from Upstate Biotechnology, cat. no. 14-117); purchased Upstate Biotechnology 14-117; host or cells: baculo viral cells
Description: The compounds were evaluated as inhibitors of human Src kinase using either a radioactivity-based assay or spectrophotometric assay. The compounds were assayed as inhibitors of full length recombinant human Src kinase (from Upstate Biotechnology, cat. no. 14-117) expressed and purified from baculo viral cells. […] P-0275). […] In a typical assay, all the reaction components with the exception of ATP were pre-mixed and aliquoted into assay plate wells. […] The assay plate was incubated at 30° C. for 10 min before initiating the reaction with ^33P-ATP. After 20 min of reaction, the reactions were quenched with 150 μl of 10% trichloroacetic acid (TCA) containing 20 mM Na3PO4. The quenched samples were then transferred to a 96-well filter plate (Whatman, UNI-Filter GF/F Glass Fiber Filter, cat no. 7700-3310) installed on a filter plate vacuum manifold. Filter plates were washed four times with 10% TCA containing 20 mM Na3PO4 and then 4 times with methanol. 200 μl of scintillation fluid was then added to each well. The plates were sealed and the amount of radioactivity associated with the filters was quantified on a TopCount scintillation counter. The radioactivity incorporated was plotted as a function of the inhibitor concentration. The data was fitted to a competitive inhibition kinetics model to get the Ki for the compound. The ADP produced from ATP by the human recombinant Src kinase-catalyzed phosphorylation of poly Glu-Tyr substrate was quanitified using a coupled enzyme assay (Fox et al (1998) Protein Sci 7, 2249). In this assay one molecule of NADH is oxidised to NAD for every molecule of ADP produced in the kinase reaction. The disappearance of NADH can be conveniently followed at 340 nm. […] In a typical assay, all the reaction components with the exception of ATP were pre-mixed and aliquoted into assay plate wells. […] The absorbance change at 340 nm with time, the rate of the reaction, was monitored on a molecular devices plate reader. The data of rate as a function of the inhibitor concentration was fitted to competitive inhibition kinetics model to get the Ki for the compound.

In the case of `CC(=O)Nc1ccc(Sc2nc(Nc3cc[nH]n3)c3ccccc3n2)cc1` [IIa-63, [2-(4-Acetamido-phenylsulfanyl)-quinazolin-4-yl]-(2H-pyrazol-3-yl)-amine], the Ki (GSK-3β (AA 1-420)) is reported as 100 to 1000 nM, the Ki (Aurora-2) is reported as < 100 nM and the Ki (human Src kinase) is reported as 1000 to 6000 nM.

— patent US6653300B2, “Pyrazole compounds useful as protein kinase inhibitors” (Vertex Pharmaceuticals Incorporated, priority 2000, dated 2003)
